Experimental data published in PubChem BioAssay (NCI).
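Step 1: Grow cells in 96-well plates. Step 2: Expose to compound for 48 hours at 5 concentrations. Step 3: Interpolate endpoints linearly; if unreached, use highest concentration. Abbreviation: GI50, concentration required for 50% inhibition of growth.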

What was measured:
Test in all cases: NCI anticancer screen, dose series, 48 h; in the data active = GI50 below about 0.43 µM; inactive = the rest
[1] = test system: U251 CNS
[2] = test system: ACHN renal
[3] = test system: DU-145 prostate

Measured: GI50

CC1=C[C@H]2O[C@@H]3[C@H](O)[C@@H](O)[C@](C)(C2(COC(=O)CCl)CC1)[C@@]31CO1 (stereo partly drawn)
inactive: [1] 482 nM | [2] 1650 nM | [3] 1840 nM
